Tests used:
HDAC = assay: FACTORIAL assay: similarity of TFAP to the consensus HDAC inhibitor TFAP; assay type: cell-based, human
[1] = in humans; cited from earlier work

Row | Structure (SMILES) | retrieved by querying the Attagene dataset with the HDAC TFAP (HDAC) | maximum plasma concentration [1]
1 | CC(C)CC(=O)O [isovaleric acid] | retrieved | 
2 | CCc1ccc(CCOc2ccc(CC3SC(=O)NC3=O)cc2)nc1 (centres unmarked) [pioglitazone] |  | 2.9 µM

— patent US20210181182A1, “METHOD FOR IDENTIFICATION OF PERTURBAGENS OF PARTICULAR BIOLOGICAL PROCESSES AND CELL SYSTEMS WITHIN LIVING CELLS” (priority 2018, published 2021)
